Measurements as given in publication PMC7723054.
The other results are listed elsewhere or left out.

B1: hsa-mir-1-1 (structured_RNA)
RNA: GGGAAACCGAGGAUGGACUGCAUGUCUCGGUGUACGAAGUUUCAGCCCCAUAUGGACCUGCUAAGCUAUGGAGCUGAAGCUUCGUGCAC
B2: hsa-mir-181d (structured_RNA)
RNA: GGGAGAGAAAAGCGACGAUCAUUCGCGCGGUGUACGAAGUUUCAGCGUGGGUUGUGAGGACUGAGGCCAGACCCACGCUGAAGCUUCGUGCAC
B3: hsa-mir-760 (structured_RNA)
RNA: GGGAACCUAUGAGAAUAGCCCUCCUGAGGGUGUACGAAGUUUCAGCCCCGGAUACCUCAGAAAUUCGGGCUGAAGCUUCGUGCAC
B4: hsa-mir-193b (structured_RNA)
RNA: GGGAAUCUGAGAAAGUAUUAACCAGUGCGGUGUACGAAGUUUCAGCAGAUGAGUUUAUGUUUUAUCCAACUGCUGAAGCUUCGUGCAC
B5: hsa-mir-518b_518c (structured_RNA)
RNA: GGGAGCCAUAUCUUACUGUGUACUGCGGGGUGUACGAAGUUUCAGCUCUGUUGUCUGAAAGAAAACAGCUGAAGCUUCGUGCAC
B6: hsa-mir-489 (structured_RNA)
RNA: GGGAGGCAGAAUCACAACGAGUUCUUACGGUGUACGAAGUUUCAGCCCAUUUACUUGAACCUUUAGGAGUGAGCUGAAGCUUCGUGCAC
B7: hsa-mir-20a (structured_RNA)
RNA: GGGAAAUGGAUGGCCGUACGCAUAUUCGGGUGUACGAAGUUUCAGCAGGUAGUGUUUAGUUAUCUACUGCUGAAGCUUCGUGCAC
B8: hsa-mir-3682 (structured_RNA)
RNA: GGGAACAUGUGGCGACGGUUAUACGCCCGGUGUACGAAGUUUCAGCAUCAUAAUAAAGGUGUCAUGAUGCUGAAGCUUCGUGCAC
B9: hsa-mir-411 (structured_RNA)
RNA: GGGACAGUAUCAUCACGCACUUCGGCCGGGUGUACGAAGUUUCAGCCGUACGCUUUAUCUGUGACGUAUGGCUGAAGCUUCGUGCAC
B10: hsa-mir-6131 (structured_RNA)
RNA: GGGACAGUCCUGCAGGUUAAACUAUCGCGGUGUACGAAGUUUCAGCGGUCAGGUGGUGCCCUCCUUCCAUGGGUAGAGCCAGAGAUGGUGGGUUCUGGCUGCUGAAGCUUCGUGCAC
B11: PARIS_ID4 (structured_RNA)
RNA: GGGAGACCGCUGAAGACGUAUUGUGAACGGUGUACGAAGUUUCAGCAGUGAUGGCUUUGAGGUUAUUUGCAGUUUCCUAGCCAUCUCAAAGUGUGCUGCGGGGAUCUCUGCUGAAGCUUCGUGCAC
B12: hsa-mir-580 (structured_RNA)
RNA: GGGAUAACCUAUUGUCGGCUUUGCACCAGGUGUACGAAGUUUCAGCUCAGAUAUUUAAGUUAACAGUAUUUGAGCUGAAGCUUCGUGCAC

Key:
Assay in all cases: FOREST: bead pull-down of RNA structure library v1, barcode microarray; U1A/LIN28A: 20 mM HEPES pH 7.5, 80 mM KCl, 20 mM NaCl, 10% glycerol, 2 mM DTT, 0.1 ug/uL BSA, 4 C; BG4/CIRBP/DHX36: 10 mM Tris-HCl pH 7.5, 100 mM KCl (or LiCl),; high values mean tight binding
LIN28A = target: T1, LIN28A (human?, UniProt Q9H9Z2 1-209)
T1 sequence: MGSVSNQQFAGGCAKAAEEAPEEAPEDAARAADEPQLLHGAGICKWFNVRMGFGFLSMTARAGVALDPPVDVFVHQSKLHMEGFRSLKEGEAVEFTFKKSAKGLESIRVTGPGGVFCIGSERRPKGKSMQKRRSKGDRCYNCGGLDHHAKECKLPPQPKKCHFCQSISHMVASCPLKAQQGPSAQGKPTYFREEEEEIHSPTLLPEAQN

CIRBP = target: T2, CIRBP (Homo sapiens, UniProt Q14011 1-172)
T2 sequence: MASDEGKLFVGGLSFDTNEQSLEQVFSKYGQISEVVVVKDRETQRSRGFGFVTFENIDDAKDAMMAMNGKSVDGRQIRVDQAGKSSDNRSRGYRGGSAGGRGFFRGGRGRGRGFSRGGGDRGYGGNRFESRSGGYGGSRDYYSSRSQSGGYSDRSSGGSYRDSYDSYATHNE

DHX36 = target: T3, DHX36 (Homo sapiens, UniProt Q9H2U1 1-1008)
T3 sequence: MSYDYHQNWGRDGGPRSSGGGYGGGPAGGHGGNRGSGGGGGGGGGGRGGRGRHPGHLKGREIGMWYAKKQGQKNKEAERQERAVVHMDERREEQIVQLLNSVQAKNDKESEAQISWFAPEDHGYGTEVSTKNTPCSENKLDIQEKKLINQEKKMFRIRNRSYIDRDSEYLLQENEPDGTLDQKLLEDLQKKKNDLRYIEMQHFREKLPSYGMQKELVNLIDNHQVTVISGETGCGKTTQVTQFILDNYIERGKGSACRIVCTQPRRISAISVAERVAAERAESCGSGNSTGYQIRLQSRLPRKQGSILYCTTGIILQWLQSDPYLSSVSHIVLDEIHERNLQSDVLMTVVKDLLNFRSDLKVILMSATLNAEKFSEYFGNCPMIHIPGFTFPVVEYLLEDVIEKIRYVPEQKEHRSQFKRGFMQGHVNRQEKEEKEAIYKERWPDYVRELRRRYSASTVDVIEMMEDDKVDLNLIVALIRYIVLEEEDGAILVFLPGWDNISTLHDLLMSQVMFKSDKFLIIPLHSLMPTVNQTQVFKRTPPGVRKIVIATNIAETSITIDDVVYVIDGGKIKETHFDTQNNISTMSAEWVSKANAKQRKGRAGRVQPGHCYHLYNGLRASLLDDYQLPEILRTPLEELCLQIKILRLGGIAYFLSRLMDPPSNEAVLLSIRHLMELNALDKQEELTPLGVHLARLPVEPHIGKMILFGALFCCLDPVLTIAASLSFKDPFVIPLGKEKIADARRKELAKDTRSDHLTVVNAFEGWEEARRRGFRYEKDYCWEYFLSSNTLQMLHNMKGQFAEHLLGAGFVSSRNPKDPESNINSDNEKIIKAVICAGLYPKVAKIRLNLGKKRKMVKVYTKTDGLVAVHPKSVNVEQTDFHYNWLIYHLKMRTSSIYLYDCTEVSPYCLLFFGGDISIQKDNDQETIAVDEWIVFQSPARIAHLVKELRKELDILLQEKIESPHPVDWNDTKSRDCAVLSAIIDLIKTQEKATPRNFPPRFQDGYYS

| Binder | binding signal (LIN28A) | binding signal (CIRBP) | binding signal (DHX36) |
| --- | --- | --- | --- |
| B1 | 1.48 z-score | 2.3 z-score | 0.315 z-score |
| B2 | 1.48 z-score | 1.06 z-score | 1.3 z-score |
| B3 | 1.47 z-score | 3.62 z-score | 1.18 z-score |
| B4 | 1.46 z-score | 0.242 z-score | -0.154 z-score |
| B5 | 1.45 z-score | 1.41 z-score | 0.951 z-score |
| B6 | 1.45 z-score | 0.914 z-score | 0.124 z-score |
| B7 | 1.43 z-score | 0.385 z-score | 2.02 z-score |
| B8 | 1.42 z-score | -0.497 z-score | -0.423 z-score |
| B9 | 1.42 z-score | 0.443 z-score | 0.233 z-score |
| B10 | 1.42 z-score | -0.4 z-score | 0.204 z-score |
| B11 | 1.42 z-score | 0.399 z-score | 1.04 z-score |
| B12 | 1.41 z-score | 1.02 z-score | 0.858 z-score |
